Data from US20240199683A1, “ANDROGEN RECEPTOR MODULATORS” (priority 2021, published 2024).

Amino acid sequences for entries named in this document (tags omitted).
UniProt P10275, whole entry: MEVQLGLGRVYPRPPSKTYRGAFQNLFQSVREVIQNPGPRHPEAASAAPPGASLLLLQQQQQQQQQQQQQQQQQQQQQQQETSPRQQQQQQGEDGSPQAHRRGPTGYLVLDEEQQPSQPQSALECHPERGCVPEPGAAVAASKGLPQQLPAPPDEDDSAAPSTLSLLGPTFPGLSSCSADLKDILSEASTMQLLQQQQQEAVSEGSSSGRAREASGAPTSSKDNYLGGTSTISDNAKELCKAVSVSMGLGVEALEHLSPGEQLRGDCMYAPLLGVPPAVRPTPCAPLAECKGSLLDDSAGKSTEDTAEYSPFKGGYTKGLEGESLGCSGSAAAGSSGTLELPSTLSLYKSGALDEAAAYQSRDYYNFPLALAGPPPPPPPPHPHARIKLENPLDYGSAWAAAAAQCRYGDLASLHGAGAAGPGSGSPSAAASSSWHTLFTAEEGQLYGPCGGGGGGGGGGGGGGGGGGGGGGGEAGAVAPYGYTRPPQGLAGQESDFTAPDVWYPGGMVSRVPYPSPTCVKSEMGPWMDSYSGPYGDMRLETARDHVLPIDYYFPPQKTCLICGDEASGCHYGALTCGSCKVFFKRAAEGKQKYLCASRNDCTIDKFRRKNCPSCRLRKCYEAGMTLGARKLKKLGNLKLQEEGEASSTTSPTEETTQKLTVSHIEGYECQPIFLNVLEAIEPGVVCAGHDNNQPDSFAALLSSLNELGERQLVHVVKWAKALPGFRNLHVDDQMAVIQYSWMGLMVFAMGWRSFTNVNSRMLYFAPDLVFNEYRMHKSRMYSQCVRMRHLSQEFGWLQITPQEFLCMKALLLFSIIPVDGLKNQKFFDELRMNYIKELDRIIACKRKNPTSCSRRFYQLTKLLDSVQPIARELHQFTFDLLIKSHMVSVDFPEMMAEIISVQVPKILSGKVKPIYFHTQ

Legend:
[1] = biological target: human AR (Homo sapiens, UniProt P10275); assay: human AR antagonist assay (Indigo Biosciences); type: cell-based
[2] = biological target: androgen receptor (Homo sapiens, UniProt P10275); assay: Ki of Table A (method not described; AR binding assays mentioned generally)
[3] = Table A, values match the human AR antagonist assay

Structure (SMILES)	pIC50 [1, 3]	HillSlope ([1]; Table 3, antagonist mode)	pIC50 ([1]; Table 3, antagonist mode)	pKi [2]
C[C@]12CC[C@@]3(C)C(=C1C[C@@H](O)C2)CC[C@H]1C[C@@H](O)CC[C@@H]13	5.32			
CC(C)CCC[C@]12CC[C@@]3(C)C(=C1C[C@@H](O)C2)CC[C@H]1CC(=O)CC[C@@H]13	6.16	0.6338	6.16	5.77

pIC50, pKi: −log10 of the molar value.
